The source of these data is patent publication US7629351B2, “N-((1R,2S,5R)-5-(tert-butylamino)-2-((S)-2-oxo-3-(6-(trifluoromethyl)quinazolin-4-ylamino) pyrrolidin-1-yl)cyclohexyl)acetamide and other modulators of chemokine receptor activity, crystalline forms and process” (Bristol-Myers Squibb Company, priority 2006, dated 2009).

Chains of the proteins cited; added tags and fusions are not shown. Lines headed by an entry give the natural chain unless they say otherwise; changes in a name come on top.
UniProt P41597: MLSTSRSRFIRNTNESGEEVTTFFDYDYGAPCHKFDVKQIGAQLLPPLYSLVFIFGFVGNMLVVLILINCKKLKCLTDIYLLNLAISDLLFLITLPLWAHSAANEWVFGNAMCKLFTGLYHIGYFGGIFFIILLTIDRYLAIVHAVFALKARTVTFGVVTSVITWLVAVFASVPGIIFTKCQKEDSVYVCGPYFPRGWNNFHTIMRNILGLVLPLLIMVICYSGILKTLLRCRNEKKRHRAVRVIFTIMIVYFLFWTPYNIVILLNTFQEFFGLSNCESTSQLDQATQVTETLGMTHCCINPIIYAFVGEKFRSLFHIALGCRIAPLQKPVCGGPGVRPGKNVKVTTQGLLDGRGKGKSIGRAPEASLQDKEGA

Read-outs that look alike come from different tables or passages of the source.

The nature of data set [1]: Intradermal MCP-1 challenge model in cynomolgus monkey. Type of data set: in vivo. The conditions noted are these: both sexes, cynomolgus monkey, plasma, 18 hours post dosing, read-out: Free plasma concentration. On the procedure: (§1) Intradermal injection of MCP-1 results in the infiltration of mononuclear cells to the injection site. This model was initially developed to assess the inhibitory effect of CCR2 antagonists on the infiltration of mononuclear cells to the skin tissue injected with human MCP-1. The cellular infiltrate can be measured semi-quantitatively by histological scoring.
(§2) Immediately after dosing on Day 3, all animals received 2 intradermal injections of 10 μg (50 μL/injection ) of human MCP-1 (R & D Systems) and 2 intradermal injections of its DPBS control (50 μl/injection) at separate sites on the dorsal thorax. Dermal biopsies of all sites were obtained at approximately 18 hours following MCP-1 (or DPBS) challenge. Biopsies were processed for semi-quantitative histological evaluation. Representative sections of skin samples were examined by light microscopy; microscopic lesions and cellular infiltration were noted and their incidences were tabulated.
(§3) In addition to biopsy analysis, blood was collected and evaluated for complete blood counts and cell differentials. Also evaluated were plasma samples for compound (and metabolite) concentrations, and serum samples for systemic MCP-1 levels.

The subject of data set [2] is mononuclear cell recruitment to the skin. The description is as above. Type of data set: in vivo. The procedure:
as §1, §2, §3

The test system of data set [3] is monocyte/macrophage infiltration. Kind of data set: 48-hour TG peritonitis model in hCCR2 KI mouse. The conditions noted are these: for inhibition of monocyte/macrophage infiltration: 48 h post TG; for % inhibition of monocyte/macrophage infiltration: 48 hour.
For another data set, the target named is CCR2 (Homo sapiens, UniProt P41597). Description: In vivo receptor occupancy in blood of hCCR2 KI mice, 48-hour TG peritonitis model (Gaddum equation).
Where [4] appears, read: 5 mg/kg oral once daily for three days.
[5] abbreviates: 10 mg/kg oral once daily for three days.
Where [6] appears, read: 20 mg/kg oral once daily for three days.

As to `CC(=O)N[C@@H]1C[C@H](NC(C)(C)C)CC[C@@H]1N1CC[C@H](Nc2ncnc3ccc(C(F)(F)F)cc23)C1=O` [Example 1, N-((1R,2S,5R)-5-(tert-butylamino)-2-((S)-2-oxo-3-(6-(trifluoromethyl)quinazolin-4-ylamino)pyrrolidin-1-yl)cyclohexyl)acetamide], the results for the concentration at 18 h in data set [1] (setting [4]), in data set [1] (setting [5]) and in data set [1] (setting [6]) were 99 nM, 248 nM and 512 nM, respectively. Also, the “inhibition of dermal mononuclear cell infiltration” value is reported as 75% in data set [2] (setting [4]), 95% in data set [2] (setting [5]) and 95% in data set [2] (setting [6]). Moreover, the “infiltration of other cell types such as eosinophils and neutrophils” value in data set [2] (MCP-1 challenge) is reported as “blocked”. Moreover, the “inhibition of monocyte/macrophage infiltration” value in data set [3] (1 mg/kg BID oral) is 24%; in data set [3] (25 mg/kg BID oral) it was 74%; in data set [3] (100 mg/kg BID oral), 78%. The “% inhibition of monocyte/macrophage infiltration” value in data set [3] (1 mg/kg BID oral) was 24%; in data set [3] (25 mg/kg BID oral), 74%; in data set [3] (100 mg/kg BID oral), 78%. In addition, the “Concentration of Mouse MCP-1 in plasma” value at CCR2 (1 mg/kg BID oral) was 0.005 nM; at CCR2 (25 mg/kg BID oral) it was 0.017 nM; at CCR2 (100 mg/kg BID oral), 0.015 nM. The “Concentration of free Example 1 in plasma” value at CCR2 (1 mg/kg BID oral) is 1.4 nM; on CCR2 (25 mg/kg BID oral) it was 14 nM; at CCR2 (100 mg/kg BID oral), 53 nM.
